In the library only some 16% were active in any assay of this set; here they are far more common.
uPA surface inh: blocks generation of uPA at the cell surface; 0.31% of 330,000 active; cell surface uPA generation assay, qHTS; Potency, µM (top dose mostly 38.3 µM), for inactives: at the highest dose activity change, negative = inhibition, hits mostly inhibitors; AID 540303; active = well fitted inhibition curve with a large enough effect; inconclusive = small, poorly fitted or top-dose-only effect; inactive = no such curve, though single readings can be large or run the other way; tested in mouse RAW 264.7 cells; note: potency is the fitted concentration of half-maximal effect; % is set by controls: 0 for no effect and ±100 for the full control effect; nearly all actives have a fitted effect of over 55% in size
DT40 TDP1 no CPT: qHTS for Inhibitors of human tyrosyl-DNA phosphodiesterase 1 (TDP1): qHTS in cells in absence of CPT | DT40 Tdp1-/- hTDP1 cells, no CPT, ATP luminescence, 48 h | Potency, µM (highest dose often 46.2 µM), for inactives: at the highest dose activity change, negative = growth inhibition, actives largely listed as inhibitors | 15% of 420,000 active; note: potency is the fitted concentration of half-maximal effect; % is set by controls: 0 for no effect and ±100 for the full control effect; nearly all actives have a fitted effect of over 55% in size
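Growth kinetics read by CellTiter-Glo luminescence after ≥48 hr at 37 °C. Cells: DT40 Tdp1-/- stably carrying human TDP1, 400 per well, compound exposure in the absence of CPT (DMSO vehicle).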
miR-21 reporter: miR-21 reporter, rising signal; HeLa miR-21 FLuc reporter, luciferase, 48 h; Potency, µM (titrated, usually from 38.3 µM), for the others: at the top dose reporter change, positive = more light; 340,000 tested, under 10 active; AID 2288; active = well fitted rising curve with a large enough effect; inconclusive = small, poorly fitted or top-dose-only effect; inactive = no such curve, though single readings can be large or run the other way;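 also: % of control where 0% means no effect; miR-21 action dims this reporter so a rising signal means less miR-21 action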
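Luminescence from a firefly luciferase reporter carrying a miR-21 binding site downstream, stably expressed under a CMV promoter in HeLa cells that make miR-21 endogenously, reports miRNA modulation after 48 h compound exposure up to approximately 40uM final.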
TDP1 block: blocks human tyrosyl-DNA phosphodiesterase 1 | recombinant TDP1, AlphaScreen DNA substrate cleavage | Potency, µM (series often up to 130 µM), for inactives: at the highest dose activity change, negative = inhibition, actives largely listed as inhibitors | 0.28% of 350,000 active; note: potency is the fitted concentration of half-maximal effect; % is set by controls: 0 for no effect and ±100 for the full control effect; nearly all actives have a fitted effect of over 40% in size
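Recombinant E. coli-expressed Tdp1 (1 nM) preincubated with compound 15 min at RT, then 5'-biotin/3'-phosphotyrosine-FITC DNA substrate (15 nM) added for 5 min. AlphaScreen beads (10 ug/ml) added, 10 min RT; tyrosine-FITC cleavage read as signal loss.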
DT40 TDP1 CPT: growth inhibition of DT40 Tdp1-/-;hTDP1 cells with camptothecin (screen for TDP1 inhibitors); chicken DT40 Tdp1-/-;hTDP1 cells + 20 nM CPT, ATP luminescence, 48 h; Potency, µM (highest dose often 46.2 µM), without a hit: top-dose activity change, negative = growth inhibition, actives largely listed as inhibitors; 12% of 420,000 active; AID 686979; note: potency is the fitted concentration of half-maximal effect; % is set by controls: 0 for no effect and ±100 for the full control effect; nearly all actives have a fitted effect of over 55% in size
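Chicken DT40 Tdp1-/- cells stably complemented with human TDP1 were seeded at 400 cells/well in medium containing 20 nM camptothecin, exposed to pin-transferred compounds, and grown at 37 °C for at least 48 hr. Viability was read as ATP luminescence.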
* = called active by the depositor; [ ] = another dose, or the depositor's remark. Unless noted, calls come from the whole dose curve; as a rule, active = well fitted curve in the direction sought with a large enough effect; inconclusive = small, poorly fitted or top-dose-only effect, or another doubt; inactive = no such curve, though single readings can be large; an effect the other way counts as inactive or inconclusive.

For COc1ccc(OC)c(NC(=O)c2cc3c(=O)n4cccc(C)c4nc3n2C)c1 the results were DT40 TDP1 no CPT 9.2µM*, miR-21 reporter 2.4%, TDP1 block -1.3% and DT40 TDP1 CPT 10.3µM*.
CCCCN(CCCC)C(=O)c1cc2c(=O)n3cccc(C)c3nc2s1 was read as DT40 TDP1 no CPT inconclusive, miR-21 reporter 0.4%, TDP1 block -9.1% and DT40 TDP1 CPT inconclusive.
For COc1ccc(NC(=O)c2cc3c(=O)n4ccccc4nc3n2C)c(OC)c1 the results were uPA surface inh 1.3%, DT40 TDP1 no CPT -21.1%, miR-21 reporter -11.1%, TDP1 block 6.2% and DT40 TDP1 CPT -15.6%.
Screening Cc1cnc(C)c(-c2cccc3c2OC(CNC(=O)c2cc(C)on2)C3)n1 (stereo not given) returned DT40 TDP1 no CPT -6.8% and DT40 TDP1 CPT -0.6%[9.04 µM].
O=C(NC1CCCCC1)C(CCc1ccccc1)N1CCc2ccccc2C1 (stereo not given) was read as DT40 TDP1 no CPT 20.6µM* and DT40 TDP1 CPT 20.6µM*.
Screening O=C(NC1CCCCC1)C(CCc1ccccc1)N1CCOCC1 (stereo not given) returned DT40 TDP1 no CPT 0.8% and DT40 TDP1 CPT 4.6%.
`O=C(NCC1CCN(Cc2ccccc2F)CC1)Nc1cccc(Br)c1` gave uPA surface inh -8.2%, DT40 TDP1 no CPT 16.4µM*, miR-21 reporter 26.0% and DT40 TDP1 CPT inconclusive.
`O=C(NCC1CCN(Cc2cccc(Cl)c2)CC1)Nc1cc(Cl)ccc1Cl` gave DT40 TDP1 no CPT 13µM*, miR-21 reporter 26.5%, TDP1 block 0.0% and DT40 TDP1 CPT 23.1µM*.
Screening Cc1ccc(C)c(CN2CCC(CNC(=O)Nc3ccc(C)c(C)c3)CC2)c1 returned uPA surface inh -0.8%, DT40 TDP1 no CPT 14.6µM*, miR-21 reporter 0.9% and DT40 TDP1 CPT inconclusive.
`O=C(NCC1CCN(Cc2cccc(Cl)c2)CC1)Nc1ccc(Cl)cc1` gave uPA surface inh -12.9%, DT40 TDP1 no CPT inconclusive, miR-21 reporter 15.0% and DT40 TDP1 CPT inconclusive.
COc1ccc(Cl)cc1NC(=O)NCC1CCN(Cc2cc(C)ccc2C)CC1 was read as uPA surface inh inconclusive, DT40 TDP1 no CPT inconclusive, miR-21 reporter 22.3% and DT40 TDP1 CPT inconclusive.
`CCOc1cc(C(=O)OCc2cc(=O)n3nc(C4CC4)sc3n2)cc(OCC)c1OCC` gave DT40 TDP1 no CPT 20.6µM*, miR-21 reporter -3.4%, TDP1 block 4.5% and DT40 TDP1 CPT inconclusive.
Screening CC(C)c1nn2c(=O)cc(COC(=O)c3ccccc3NC(=O)C3CCCCC3)nc2s1 returned DT40 TDP1 no CPT inconclusive, miR-21 reporter 1.5%, TDP1 block 1.2% and DT40 TDP1 CPT inconclusive.
Screening CCOc1ccc(C(=O)OCc2cc(=O)n3nc(C4CCCCC4)sc3n2)cc1 returned DT40 TDP1 no CPT 16.4µM*, miR-21 reporter -0.2%, TDP1 block 5.8% and DT40 TDP1 CPT inconclusive.
`CC(C)c1nn2c(=O)cc(COC(=O)c3ccc(NC(=O)C4CCCCC4)cc3)nc2s1` gave DT40 TDP1 no CPT 20.6µM*, miR-21 reporter 17.3%, TDP1 block -3.8% and DT40 TDP1 CPT inconclusive.
For C[C@H](NC(=O)c1ccccc1)C(=O)OCC(=O)Nc1sccc1C(N)=O the results were uPA surface inh -0.5%, DT40 TDP1 no CPT -11.4%, TDP1 block -0.4% and DT40 TDP1 CPT -3.8%.
For O=C(O)C1=C[C@@H](c2ccc3c(c2)OCO3)C[C@@H](OCCCCO)O1 the results were uPA surface inh inconclusive, DT40 TDP1 no CPT -4.9%, miR-21 reporter -2.0%, TDP1 block -6.4% and DT40 TDP1 CPT 15.1%.
Screening Cc1csc2nc(-c3cccc(NC(=O)c4cccc(F)c4)c3)cn12 returned DT40 TDP1 no CPT 18.4µM*, miR-21 reporter 5.8%, TDP1 block 5.4% and DT40 TDP1 CPT 18.4µM*.
For Cc1csc2nc(-c3cccc(NC(=O)c4ccccc4Cl)c3)cn12 the results were DT40 TDP1 no CPT 18.4µM*, miR-21 reporter -8.2%, TDP1 block 5.4% and DT40 TDP1 CPT 18.4µM*.

A draw from above in order of length of the SMILES, highest first.
For C[C@H](NC(=O)c1ccccc1)C(=O)OCC(=O)Nc1sccc1C(N)=O the results were uPA surface inh -0.5%, DT40 TDP1 no CPT -11.4%, TDP1 block -0.4% and DT40 TDP1 CPT -3.8%.
Screening CCOc1ccc(C(=O)OCc2cc(=O)n3nc(C4CCCCC4)sc3n2)cc1 returned DT40 TDP1 no CPT 16.4µM*, miR-21 reporter -0.2%, TDP1 block 5.8% and DT40 TDP1 CPT inconclusive.
For Cc1csc2nc(-c3cccc(NC(=O)c4ccccc4Cl)c3)cn12 the results were DT40 TDP1 no CPT 18.4µM*, miR-21 reporter -8.2%, TDP1 block 5.4% and DT40 TDP1 CPT 18.4µM*.

Screening data deposited in PubChem by National Center for Advancing Translational Sciences (NCATS).
